Here are results for one substance from patent publication US7498404B2, “Compositions, methods and uses for a novel family of peptides” (priority 2004, dated 2009).

Data set [1] relates to aminopeptidase M. As to conditions: purified BT1583 (Fraction 33).
For data set [2] the following is noted: mouse, in vivo.
For data set [3] the following is noted: in vivo.

Like-named read-outs stand apart in the source and are kept apart here.

For “Me2Bmt-L-dO-I-V-V-dK-V-dL-K-dY-L-Vol [BT1583]”, in data set [1], the “degradation by aminopeptidase M” value is recorded as “resistant”. For the same substance, the “digestion in the GI track” value in data set [2] is given as “not digested”. In addition, in data set [3], the “absorption by the chicken GI track” value is “no or very little absorption” and the “digestion in the GI track” value was “not digested”.
